According to ChEMBL document CHEMBL1144357, “Synthesis, biological evaluation, and molecular modeling of ribose-modified adenosine analogues as adenosine receptor agonists” (J Med Chem, 2005):

Columns and labels:
[1] = tested on: Adenosine receptors A1 & A3 (Bos taurus); assay: Relative affinities for adenosine A3 and A1 receptors (ratio of KiA3/KiA1)
[2] = tested on: Adenosine receptor A3, Bos taurus; assay: Percent displacement of [125I]AB-MECA binding to adenosine A3 receptors of bovine cortical membranes at 0.00005 M; details: 0.00001 M
[3] = tested on: Adenosine receptor A2a, Bos taurus; assay: Percent displacement of [3H]CGS-21680 binding to adenosine A2A receptors of bovine striatal membranes at 0.00005 M; details: 0.00001 M

CCNC(=O)[C@H]1O[C@@H](n2cnc3c(N)ncnc32)[C@](C)(O)[C@@H]1O
Ratio [1]: 0.54

C[C@@]1(O)[C@@H](CO)O[C@@H](n2cnc3c(N)ncnc32)[C@@H]1O
Displacement [2]: 0% | Displacement [3]: 4%
